Where two headings read alike, the source gives them in different places.
Tests used:
Jak2 (a.a. 828-1132) = Jak2 (a.a. 828-1132) (Homo sapiens, UniProt O60674); experiment: In vitro JAK kinase assay (HTRF, phosphorylation of a biotinylated peptide), JAK2, reported as JAK2/JAK1 ratio; details: Assay Conditions 1 mM ATP
Procedure: (§1) Compounds herein were tested for inhibitory activity of JAK targets according to the following in vitro assay described in Park et al., Analytical Biochemistry 1999, 269, 94-104. The catalytic domains of human JAK1 (a.a. 837-1142), Jak2 (a.a. 828-1132) and Jak3 (a.a. 781-1124) with an N-terminal His tag were expressed using baculovirus in insect cells and purified. The catalytic activity of JAK1, JAK2 or JAK3 was assayed by measuring the phosphorylation of a biotinylated peptide. The phosphorylated peptide was detected by homogenous time resolved fluorescence (HTRF). IC50s of compounds were measured for each kinase in the 40 microL reactions that contain the enzyme, ATP and 500 nM peptide in 50 mM Tris (pH 7.8) buffer with 100 mM NaCl, 5 mM DTT, and 0.1 mg/mL (0.01%) BSA. The ATP concentration in the reactions was 90 μM for Jak1, 30 μM for Jak2 and 3 μM for Jak3 for Km conditions. For the 1 mM IC50 measurements, ATP concentration in the reactions was 1 mM. Reactions were carried out at RT for 1 h and then stopped with 20 μL 45 mM EDTA, 300 nM SA-APC, 6 nM Eu-Py20 in assay buffer (Perkin Elmer, Boston, Mass.). Binding to the Europium labeled antibody took place for 40 min and HTRF signal was measured on a Fusion plate reader (Perkin Elmer, Boston, Mass.).
(§2) Compounds herein were tested for inhibitory activity of JAK1 and JAK2 targets according to the assay of Example A (experiments run at Km or 1 mM as indicated). The symbol “+” indicates an IC50<50 nM; the symbol “++” indicates an IC50≧50 and ≦100 nM; and the symbol “+++” indicates an IC50>100 and ≦500 nM.

The chains behind the UniProt entries cited, without tags or fusion partners. Residues count along the entry.
UniProt O60674, 828-1132 limits assumed: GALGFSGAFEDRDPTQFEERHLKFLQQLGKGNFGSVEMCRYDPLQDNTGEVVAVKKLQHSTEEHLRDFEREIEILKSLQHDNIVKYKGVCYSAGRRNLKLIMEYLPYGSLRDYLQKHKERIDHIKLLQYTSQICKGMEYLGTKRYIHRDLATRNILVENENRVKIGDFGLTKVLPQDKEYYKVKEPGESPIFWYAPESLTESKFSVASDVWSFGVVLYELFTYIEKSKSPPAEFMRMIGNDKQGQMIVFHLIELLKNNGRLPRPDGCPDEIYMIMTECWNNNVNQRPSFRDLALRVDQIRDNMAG
UniProt P23458, 849-1154 limits assumed: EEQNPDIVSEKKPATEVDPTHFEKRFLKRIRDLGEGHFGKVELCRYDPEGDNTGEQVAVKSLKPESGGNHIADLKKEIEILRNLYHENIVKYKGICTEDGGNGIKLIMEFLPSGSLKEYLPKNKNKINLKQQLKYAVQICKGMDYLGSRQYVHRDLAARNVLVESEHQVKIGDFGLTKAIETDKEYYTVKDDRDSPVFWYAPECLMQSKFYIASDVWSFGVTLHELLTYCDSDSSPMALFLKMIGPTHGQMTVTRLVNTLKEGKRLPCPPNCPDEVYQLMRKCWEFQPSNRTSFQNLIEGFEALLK

[1] = biological target: human JAK1 (a.a. 837-1142) (Homo sapiens, UniProt P23458); experiment: In vitro JAK kinase assay (HTRF, phosphorylation of a biotinylated peptide), JAK1; details: read-out: JAK1 IC50, Assay Conditions 1 mM ATP
Procedure: as §1, §2

JAK2/JAK1 IC50 ratio (Jak2 (a.a. 828-1132); tested form: trifluoroacetate)	IC50 ([1]; tested form: trifluoroacetate) [nM]	SMILES	JAK2/JAK1 IC50 ratio (Jak2 (a.a. 828-1132))	IC50 [1] [nM]
		N#Cc1ncsc1N1CCC(C(CF)n2ccc(-c3ncnc4[nH]ccc34)c2)C1 (single isomer, unassigned)	11.3	< 50
8.7	< 50	N#CCC(C1CCN(c2ccnnc2C#N)C1)n1ccc(-c2ncnc3[nH]ccc23)c1 (centres unmarked)		
4.9	< 50	N#CCC(C1CCN(c2ncccc2C#N)C1)n1ccc(-c2ncnc3[nH]ccc23)c1 (single isomer, unassigned)		
9.3	< 50	N#CCC(C1CCN(c2nccnc2C#N)C1)n1ccc(-c2ncnc3[nH]ccc23)c1 (single isomer, unassigned)		

— patent publication US8716303B2, “N-(hetero)aryl-pyrrolidine derivatives of pyrazol-4-yl-pyrrolo[2,3-d]pyrimidines and pyrrol-3-yl-pyrrolo[2,3-d]pyrimidines as janus kinase inhibitors” (Incyte Corporation, priority 2009, dated 2014)
